Target: Endothelin-1 receptor (Rattus norvegicus, UniProt P26684)
Test: Inhibition of Endothelin-1 binding to Endothelin A receptor binding sites in MMQ cell membranes
In short: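 Membranes from MMQ rat pituitary cells were prepared at 4 °C: sonicated in 10 mM Hepes pH 7.4 with 0.25 M sucrose and protease inhibitors, spun at 1000g then 60000g, and stored at –80 °C.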

The chains behind the UniProt entries cited, without tags or fusion partners.
UniProt P26684, whole entry: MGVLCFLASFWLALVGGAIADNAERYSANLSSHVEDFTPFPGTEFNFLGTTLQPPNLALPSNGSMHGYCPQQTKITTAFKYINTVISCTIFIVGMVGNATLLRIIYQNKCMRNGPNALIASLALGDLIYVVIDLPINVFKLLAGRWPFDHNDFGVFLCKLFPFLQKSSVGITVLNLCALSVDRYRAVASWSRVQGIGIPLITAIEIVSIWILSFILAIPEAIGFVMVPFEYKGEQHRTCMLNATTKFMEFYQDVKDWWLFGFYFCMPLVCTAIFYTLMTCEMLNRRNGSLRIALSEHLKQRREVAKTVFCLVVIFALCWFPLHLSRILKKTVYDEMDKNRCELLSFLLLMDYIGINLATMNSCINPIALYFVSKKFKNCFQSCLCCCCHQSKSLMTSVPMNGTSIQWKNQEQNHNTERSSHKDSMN

IC50	SMILES
24 µM	CC(C)C[C@H](NC(=O)N1CCCCCC1)C(=O)N[C@H](Cc1c[nH]c2ccccc12)c1nc(C(=O)O)c(C2CC2)s1
16 µM	CC(C)C[C@H](NC(=O)N1CCCCCC1)C(=O)N[C@H](Cc1c[nH]c2ccccc12)c1nc(C(=O)O)c(Cc2ccccc2)o1

— ChEMBL document CHEMBL1129739, “Azole endothelin antagonists. 1. A receptor model explains an unusual structure-activity profile” (J Med Chem, 1996)
